The results in this text go back to patent publication US10214520B2, “Substituted azaspiro(4.5)decane derivatives” (priority 2014, dated 2019).

Amino acid sequences for entries named in this document (tags omitted). A change or cut given only in a name is not applied to a line headed by its entry.
UniProt P35372, whole entry, looked up: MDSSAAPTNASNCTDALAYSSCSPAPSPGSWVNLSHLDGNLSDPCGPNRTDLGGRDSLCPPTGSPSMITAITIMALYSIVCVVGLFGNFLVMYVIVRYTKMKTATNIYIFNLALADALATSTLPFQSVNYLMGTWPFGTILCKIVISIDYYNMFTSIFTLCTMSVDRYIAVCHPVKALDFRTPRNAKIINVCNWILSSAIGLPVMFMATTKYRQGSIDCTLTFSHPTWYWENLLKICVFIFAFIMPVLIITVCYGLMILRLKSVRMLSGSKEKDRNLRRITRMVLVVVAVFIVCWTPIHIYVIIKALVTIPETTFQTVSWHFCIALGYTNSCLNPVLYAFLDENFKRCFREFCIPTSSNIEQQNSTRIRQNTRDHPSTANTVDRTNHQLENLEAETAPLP
UniProt P41146: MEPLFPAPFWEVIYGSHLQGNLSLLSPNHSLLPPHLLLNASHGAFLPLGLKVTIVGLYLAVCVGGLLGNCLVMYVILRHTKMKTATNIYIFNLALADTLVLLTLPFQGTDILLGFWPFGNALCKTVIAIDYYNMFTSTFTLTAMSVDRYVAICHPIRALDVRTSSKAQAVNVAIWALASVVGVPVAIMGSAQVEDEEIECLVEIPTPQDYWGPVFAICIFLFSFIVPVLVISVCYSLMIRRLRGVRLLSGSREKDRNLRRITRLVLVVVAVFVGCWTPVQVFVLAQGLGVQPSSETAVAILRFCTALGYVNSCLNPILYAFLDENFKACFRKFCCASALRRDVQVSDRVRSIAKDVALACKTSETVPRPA

Read-outs that look alike come from different tables or passages of the source.

For one assay, the target named is human μ opiate receptor (Homo sapiens, UniProt P35372). The assay is described as follows: μ opiate receptor binding assay with [3H]-naloxone, membrane preparation of CHO-K1 cells (WGA-SPA beads). The settings on record: for % inhibition (μ) [1 μM] / MOP % Inhibition @1 μM: test concentration 1 μM.
In assay [1] the test system is Female Sprague Dawley rats. The experiment in a line: Analgesia in the tail flick (focal ray) test in rats, intravenous administration.
Another assay deals with ORL1 receptor (Homo sapiens, UniProt P41146). Particulars: for Ki: read-out: Ki (ORL1) mean [μm], mean; for % inhibition (ORL1) [1 μM] / ORL1 % Inhibition @ 1 μM: test concentration 1 μM.
[2] abbreviates: read-out: Ki (μ) mean [μm], mean.

One may read the Ki as a dissociation constant, usually derived from enzyme kinetics or from competition with a known ligand. For the compound `Cc1ccc(C2(N(C)C)CCC3(CCN(Cc4ccccc4)C3)CC2)s1` (stereo not shown), the Ki on human μ opiate receptor (setting [2]) turned out to be 1.84 nM. In addition, the “% inhibition (μ) [1 μM]” value at human μ opiate receptor was determined as 99.5%. For the same compound, the “Tail flick rat, i.v. % MPE (@μg/kg)” value in assay [1] (@100 μg/kg) was 0%@100 % MPE. In addition, at ORL1 receptor, the inhibition constant (Ki) came out at 3.03 nM and the “% inhibition (ORL1) [1 μM]” value is given as 98.5%.
Consider `CN(C)C1(c2cccs2)CCC2(CCN(Cc3ccncc3)C2)CC1` (stereo not shown), for which the figures for the Ki on human μ opiate receptor (setting [2]) and on ORL1 receptor were 6.8 nM and 29 nM, respectively. Moreover, the “% inhibition (μ) [1 μM]” value on human μ opiate receptor amounted to 98%. For the same compound, the “Tail flick rat, i.v. % MPE (@μg/kg)” value in assay [1] (@1000 μg/kg) is on record as 15%@1000 % MPE. In addition, on ORL1 receptor, the “% inhibition (ORL1) [1 μM]” value came out at 78%.
With `CN(C)C1(c2cccs2)CCC2(CCN(Cc3cccnc3)C2)CC1` (stereo not shown), the “SNL rat, i.v. % MPE (@μg/kg)” value in the assay on Male Sprague Dawley rats (@1000 μg/kg) amounted to 59.5%@1000 % MPE. In addition, the Ki on human μ opiate receptor (setting [2]) stood at 12 nM. Also, at human μ opiate receptor, the “% inhibition (μ) [1 μM]” value is 97%. In assay [1], the “Tail flick rat, i.v. ED50rat [μg/kg]” value was 1250 µg/kg. For the same compound, at ORL1 receptor, the inhibitory constant (Ki) amounted to 12.5 nM and the “% inhibition (ORL1) [1 μM]” value stood at 90%.
With `CN(C)C1(c2ccc(Cl)s2)CCC2(CCN(Cc3ccccc3)C2)CC1` (stereo not shown), the inhibition constant Ki on human μ opiate receptor (setting [2]) is 1.3 nM. In addition, at human μ opiate receptor, the “% inhibition (μ) [1 μM]” value is reported as 100%. In addition, the “Tail flick rat, i.v. % MPE (@μg/kg)” value in assay [1] (@100 μg/kg) was determined as 0%@100 % MPE. For the same compound, on ORL1 receptor, the Ki was found to be 4.95 nM and the “% inhibition (ORL1) [1 μM]” value is reported as 94.5%.
In the same order, the values of `CCNC(=O)N1CCC2(CCC(c3cccs3)(N(C)C)CC2)C1` (stereo not shown) are 3.9 nM, 99%, 30%@100 % MPE, 44 nM and 68.5%.
In the case of `CN(C)C1(c2ccc(F)s2)CCC2(CCN(C(=O)c3ccccc3)C2)CC1` (stereo not shown), the Ki at human μ opiate receptor (setting [2]) was 58 nM. Besides, the “% inhibition (μ) [1 μM]” value on human μ opiate receptor was determined as 90.5%. In assay [1], the “Tail flick rat, i.v. ED50rat [μg/kg]” value was 165 µg/kg. Moreover, at ORL1 receptor, the inhibition constant (Ki) is 26 nM and the “% inhibition (ORL1) [1 μM]” value was 86%.
Take `CN(C)C1(c2ccccc2)CCC2(CCN(Cc3ccccn3)C2)CC1` (stereo not shown): the inhibition constant Ki on human μ opiate receptor (setting [2]) amounted to 10.2 nM. Besides, the “% inhibition (μ) [1 μM]” value on human μ opiate receptor is recorded as 94%. For the same compound, the “Tail flick rat, i.v. % MPE (@μg/kg)” value in assay [1] (@100 μg/kg) is given as 0%@100 % MPE. Also, at ORL1 receptor, the Ki turned out to be 8 nM and the “% inhibition (ORL1) [1 μM]” value was found to be 86.5%.
On to `Cc1ccc(C2(N(C)C)CCC3(CCN(Cc4ccncc4)C3)CC2)s1` (stereo not shown), for which the Ki at human μ opiate receptor (setting [2]) amounted to 28 nM. For the same compound, the “% inhibition (μ) [1 μM]” value at human μ opiate receptor is 90%. For the same compound, in assay [1] (@1000 μg/kg), the “Tail flick rat, i.v. % MPE (@μg/kg)” value is reported as 0%@1000 % MPE. Also, on ORL1 receptor, the inhibition constant (Ki) worked out at 39.5 nM and the “% inhibition (ORL1) [1 μM]” value is listed as 74%.
With `CN(C)C1(c2cccs2)CCC2(CCN(Cc3cncnc3)C2)CC1` (stereo not shown), the inhibition constant (Ki) at human μ opiate receptor (setting [2]) was determined as 11.5 nM. Further, the “% inhibition (μ) [1 μM]” value on human μ opiate receptor is given as 96%. In addition, in assay [1] (@1000 μg/kg), the “Tail flick rat, i.v. % MPE (@μg/kg)” value worked out at 23%@1000 % MPE. Moreover, at ORL1 receptor, the Ki was 17.5 nM and the “% inhibition (ORL1) [1 μM]” value stood at 84.5%.
Turning to `CN(C)C1(c2ccccc2)CCC2(CCN(Cc3ccccc3)C2)CC1` (stereo not shown), on human μ opiate receptor (setting [2]), the inhibitory constant (Ki) was determined as 2.45 nM. Moreover, the “% inhibition (μ) [1 μM]” value on human μ opiate receptor worked out at 99.5%. For the same compound, the “Tail flick rat, i.v. % MPE (@μg/kg)” value in assay [1] (@100 μg/kg) is on record as 0%@100 % MPE. Besides, at ORL1 receptor, the Ki stood at 1.29 nM and the “% inhibition (ORL1) [1 μM]” value was 91%.
As to `Cc1ccc(C2(N(C)C)CCC3(CCN(Cc4cccnc4)C3)CC2)s1` (stereo not shown), the “SNL rat, i.v. % MPE (@μg/kg)” value in the assay with Male Sprague Dawley rats (@464 μg/kg) was found to be 36%@464 % MPE. For the same compound, the inhibition constant (Ki) on human μ opiate receptor (setting [2]) was determined as 12.9 nM. In addition, the “% inhibition (μ) [1 μM]” value on human μ opiate receptor is 95.5%. The “Tail flick rat, i.v. ED50rat [μg/kg]” value in assay [1] was found to be 638 µg/kg. Besides, on ORL1 receptor, the Ki was 11.7 nM and the “% inhibition (ORL1) [1 μM]” value stood at 84%.
With `CN(C)C1(c2cccs2)CCC2(CCN(C(=O)c3ccccc3)C2)CC1` (stereo not shown), the “SNL rat, i.v. % MPE (@μg/kg)” value in the assay on Male Sprague Dawley rats (@68.1 μg/kg) is 16%@68.1 % MPE. For the same compound, the Ki on human μ opiate receptor (setting [2]) worked out at 20 nM. Moreover, the “% inhibition (μ) [1 μM]” value at human μ opiate receptor is recorded as 95%. The “Tail flick rat, i.v. ED50rat [μg/kg]” value in assay [1] worked out at 77 µg/kg. At ORL1 receptor, the inhibitory constant (Ki) stood at 21 nM and the “% inhibition (ORL1) [1 μM]” value came to 84.5%.
As to `CC(=O)N1CC(CN2CCC3(CCC(c4ccccc4)(N(C)C)CC3)C2)C1` (single isomer, unassigned), the results for the Ki on human μ opiate receptor (setting [2]) and on ORL1 receptor were 26.5 nM and 55 nM, respectively. For the same compound, the “% inhibition (μ) [1 μM]” value at human μ opiate receptor is given as 93.5%. Besides, the “% inhibition (ORL1) [1 μM]” value at ORL1 receptor was determined as 71.5%.
As for `CN(C)[C@]1(c2ccccn2)CC[C@]2(CC1)CC(=O)N(CCC(N)=O)C2`, the Ki on human μ opiate receptor (read-out: MOP Ki) was 1760 nM. Further, the “MOP % Inhibition @1 μM” value at human μ opiate receptor was found to be 39%. In addition, the “ORL1 % Inhibition @ 1 μM” value at ORL1 receptor worked out at 19%.
Consider “Cis-3-(8-Methylamino-3-oxo-8-pyridin-2-yl-2-azaspiro[4.5]decan-2-yl)-propionamide”, for which the “MOP % Inhibition @1 μM” value at human μ opiate receptor was 19%. On ORL1 receptor, the “ORL1 % Inhibition @ 1 μM” value worked out at 4%.
`CN(C)C1(c2ccccc2)CCC2(CCN(C(=O)c3cccs3)C2)CC1` (stereo not shown): at human μ opiate receptor (setting [2]), the inhibitory constant (Ki) turned out to be 1.15 nM. Also, the “% inhibition (μ) [1 μM]” value on human μ opiate receptor came to 100%. In addition, at ORL1 receptor, the inhibitory constant (Ki) stood at 1.08 nM and the “% inhibition (ORL1) [1 μM]” value stood at 97%.
